The numbers were not newly measured in paper PMC8011576 (Nature biomedical engineering, 2020), which cites them from elsewhere.

As a reminder, the Cmax is the highest concentration seen after dosing.

The conditions of this data set: human clinical data, systemic compartment, oral product; ref Digard et al.[28]; cited from earlier work.

Structures are written as SMILES.

`CN1CCC[C@H]1c1cccnc1` [Nicotine, nicotine]: the maximum concentration (Cmax) is 52 ± 9 nM.
